Here are results for 1 compound from ChEMBL document CHEMBL3886551, “Oligomer-opioid agonist conjugates” (2016).

The chains behind the UniProt entries cited, without tags or fusion partners. Where a name states a change or a piece, a line headed by the entry shows the natural chain unless it says otherwise.
UniProt P41145: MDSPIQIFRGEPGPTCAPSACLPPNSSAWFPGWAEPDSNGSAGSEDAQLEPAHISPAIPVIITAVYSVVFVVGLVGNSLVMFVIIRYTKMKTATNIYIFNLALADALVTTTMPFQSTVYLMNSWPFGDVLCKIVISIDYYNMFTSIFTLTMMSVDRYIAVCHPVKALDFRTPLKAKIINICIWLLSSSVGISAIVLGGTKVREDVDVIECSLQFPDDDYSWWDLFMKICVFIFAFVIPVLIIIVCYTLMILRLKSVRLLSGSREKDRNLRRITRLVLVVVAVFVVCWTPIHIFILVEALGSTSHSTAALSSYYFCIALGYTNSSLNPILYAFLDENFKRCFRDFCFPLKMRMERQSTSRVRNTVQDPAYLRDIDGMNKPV
UniProt P35372, whole entry: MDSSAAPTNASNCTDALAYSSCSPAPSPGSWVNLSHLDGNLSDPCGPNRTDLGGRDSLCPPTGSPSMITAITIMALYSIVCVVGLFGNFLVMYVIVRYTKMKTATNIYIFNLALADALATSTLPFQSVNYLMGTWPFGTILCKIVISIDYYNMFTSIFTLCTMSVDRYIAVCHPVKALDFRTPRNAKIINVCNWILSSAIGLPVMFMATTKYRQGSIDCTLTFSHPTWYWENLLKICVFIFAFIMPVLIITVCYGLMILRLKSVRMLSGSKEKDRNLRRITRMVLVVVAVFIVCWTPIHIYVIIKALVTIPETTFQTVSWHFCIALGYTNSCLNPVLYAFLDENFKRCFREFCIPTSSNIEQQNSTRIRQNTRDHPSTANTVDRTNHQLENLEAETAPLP

Assay [1] deals with Kappa-type opioid receptor (Homo sapiens, UniProt P41145).
Assay [2] has as its target Mu-type opioid receptor (Homo sapiens, UniProt P35372).

The structures appear in SMILES notation.

As a reminder, the EC50 is the concentration giving half of the maximal effect. Low readings indicate greater potency, high ones weaker potency. Broadly, the IC50 is the concentration that inhibits the measured activity by half. A higher IC50 goes with a need for much substance.

`COCCOCCOCCOCCOCCOCCOCCOCCOCCO[C@H]1CC[C@@]2(O)[C@H]3Cc4ccc(O)c5c4[C@@]2(CCN3CC2CCC2)C1O5` (some centres not stated) returned an EC50 in assay [1] of 485 nM. In assay [2], this compound registered an IC50 of 1010 nM.
